# Results: patent US4016272A, “Anthelmintic thiodiphenylamine cupric chloride complex salt” (priority 1975, dated 1977)
# Key:
# [1] = room temperature
substance,measurement,setting,value
complex salt of thiodiphenylamine cupric chloride,storage without loosing its activity,[1],over 5 years
same,soluble in water,,2-2.5%
